Data set [1] in a line: Relative humidity stability at ambient temperature, analyzed by XRPD. It counts as physicochemical.
A short description of data set [2]: Slurrying in water, resulting solid form. It counts as physicochemical. Particulars: three days.
For data set [3] the following is noted: concentration measurement at ~5 hours, slurry in water at ambient.

Here are results for 2 substances from patent US8513236B2 (Laurus Labs Private Limited, priority 2010, dated 2013).

Marks after values point to notes of the source that are not given here.

As to “pterostilbene:carbamazepine [cocrystal 2]”, the Results result in data set [1] (75% RH, 1 week) is “cocrystal 2, no carbamazepine dihydrate”; in data set [1] (75% RH, 4 weeks), “cocrystal 2, no carbamazepine dihydrate”; in data set [1] (75% RH, 1 day) it was “cocrystal 2, no carbamazepine dihydrate”; in data set [1] (75% RH, 3 days), “cocrystal 2, no carbamazepine dihydrate”; in data set [1] (94% RH, 1 week (7 days)), “cocrystal 2, no carbamazepine dihydrate”; in data set [1] (94% RH, 4 weeks), “cocrystal 2, no carbamazepine dihydrate”. Besides, the Results entry in data set [1] (94% RH, 1 day) is reported as “cocrystal 2, no carbamazepine dihydrate”; in data set [1] (94% RH, 3 days), “cocrystal 2, no carbamazepine dihydrate”; in data set [1] (98% RH, 1 week), “cocrystal 2, no carbamazepine dihydrate”; in data set [1] (98% RH, 4 weeks), “cocrystal 2, no carbamazepine dihydrate”; in data set [1] (98% RH, 1 day) it was “cocrystal 2, no carbamazepine dihydrate”; in data set [1] (98% RH, 3 days), “cocrystal 2, no carbamazepine dihydrate”.

Regarding pterostilbene:piperazine [cocrystal 4], the “result of slurrying in water” value in data set [2] is given as “precipitation of pterostilbene”. For the same substance, the “Solubility (±standard deviation)” value in data set [3] is recorded as 123 ± 6^b μg/mL.
